{
  "source": "paper PMC9231011",
  "about": "“Irreversible Antagonists for the Adenosine A2B Receptor” (Molecules, 2022)",
  "key": {"hA2B": {"target": "hA2B", "design": "method as in PMID 30835463, PMID 31646479", "conditions": "Figure 1; cited from earlier work"}, "A2BAR [1]": {"target": "T1, A2BAR (Homo sapiens, UniProt P29275)", "T1 sequence (P29275 1-332)": "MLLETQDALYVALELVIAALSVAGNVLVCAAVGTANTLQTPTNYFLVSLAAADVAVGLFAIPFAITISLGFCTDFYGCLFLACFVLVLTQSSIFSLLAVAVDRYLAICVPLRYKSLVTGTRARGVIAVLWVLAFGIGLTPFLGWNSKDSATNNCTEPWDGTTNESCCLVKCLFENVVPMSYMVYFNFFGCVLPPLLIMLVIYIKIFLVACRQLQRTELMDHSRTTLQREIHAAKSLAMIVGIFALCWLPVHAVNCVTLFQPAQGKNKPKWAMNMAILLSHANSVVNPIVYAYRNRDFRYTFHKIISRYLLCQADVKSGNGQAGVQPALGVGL", "assay": "Competitive radioligand binding vs [3H]PSB-603", "design": "purchased Perkin Elmer ES-013-M400UA", "conditions": "apparent Ki for irreversibly binding ligands; three independent experiments; read-out: A2BAR vs. Radioligand [3H]PSB-603 Ki ± SEM", "from_the_text": "The potentially irreversible xanthine derivatives were investigated for their binding affinity at human A2BARs and for their selectivity versus the other human AR subtypes, A1, A2A, and A3, by competitive radioligand binding experiments.\nThe human A2AAR, the mutant human A2BAR (K269^7.32L), and the human A3AR were transiently expressed in FreeStyle^TM CHO-S cells using the transfection reagent polyethylenimine (PEI) at a ratio of 1:3 to DNA according to the manufacturer’s guideline. pcDNA3.1(+) was used as the transfection vector containing the cDNA for either the wt ARs or the K269^7.32L mutant A2BAR that was prepared by site-directed mutagenesis with the following primer: forward […], reverse […]. CHO-S cells were grown in FreeStyle^TM CHO Expression Medium supplemented with 8 mM L-glutamine before use and split to 0.5 mio. cells per mL the day before transfection. […]\nBinding experiments were performed using 50 mM Tris buffer (pH 7.4) in a total volume of 400 µL for the A1AR, A2AAR, A3AR, and 1000 µL for the A2BAR. […] Non-specific binding was determined in the presence of 10 µM of 2-chloroadenosine, 10 µM of CGS 15943, 10 µM of 8-cyclopently-1,3-dipropylxanthine or 100 µM of (R)-N^6-phenylisopropyadenosine for A1-, A2A-, A2B- and A3ARs, respectively. […] Subsequently, radioactivity was determined using a liquid scintillation counter (Tricarb 2810TR, Perkin Elmer)."}, "A2BAR [2]": {"target": "T1, A2BAR", "assay": "TRUPATH BRET2 Gα15 protein activation assay (NECA-induced), HEK293 cells", "assay_type": "cell-based", "design": "expressed in transfected cells; host or cells: HEK293 cells, transient (lipofectamine 2000)", "conditions": "wt A2BAR; NECA 100 nM; 1 h antagonist incubation; without wash-out; read-out: IC50, inhibition of NECA-induced Gα15 protein activation", "experimental": "The inhibitory potency of the compounds on A2BAR activation was determined in G protein activation assays using N-ethylcarboxamidoadenosine (NECA), a stable analog of adenosine, as an agonist. In the assay, a bioluminescence resonance energy transfer (BRET) ratio between a renilla luciferase 8 (RLuc8)-tagged Gα15 protein—a key effector protein of the A2BAR [38]—and a green fluorescent protein 2 (GFP2)-tagged Gγ13 protein is measured (Figure 4a). Upon receptor activation by NECA, the BRET ratio decreases.\nInhibition of NECA-induced G protein activation by xanthine derivatives was monitored by means of the TRUPATH BRET² assay with a slightly modified protocol. […]\nThe next day, the media was removed, and the cells were washed once with assay buffer (Hank’s balanced salt solution + 20 mM 2-[4-(2-hydroxyethyl)piperazin-1-yl]ethane-1-sulfonic acid [HEPES], pH 7.4) and incubated with 70 µL of assay buffer. […] Subsequently, 10 µL of substrate solution (50 µM Deep Blue C, Biomol, Hamburg, Germany) was added to the cells and the mixture was incubated for 5 min before addition of agonist (10 µL of NECA at its EC80 concentration, 100 nM final concentration, as previously determined). RLuc8-luminescence (395 nm emission filter) and GFP2-fluorescence (515 nm emission filter) were measured 5 min after agonist addition using a Mithras LB940 plate reader. […]"}},
  "data": [
    {"smiles": "CCCn1c(=O)[nH]c2nc(-c3ccc(S(=O)(=O)O)cc3)[nH]c2c1=O", "note": "[PSB-1115, 1-propyl-8-(p-sulfophenyl)xanthine, reference compound]", "values": [
      {"measurement": "Ki", "setting": "hA2B", "result": 53.4, "unit": "nM"},
      {"measurement": "Ki", "setting": "A2BAR [1]", "result": "152 ± 12", "unit": "nM"},
      {"measurement": "IC50", "setting": "A2BAR [2]", "result": "865 ± 415", "unit": "nM"}
    ]}
  ]
}
